## Apparent affinities of Ab-14 variants for a coronavirus HR2 peptide

Source: Li et al. 2023 (doi:10.1038/s41467-023-39022-2), MIT Lincoln Laboratory and A-Alpha Bio; data file from the FLAb repository.

Binding partner: SARS-CoV-2 spike HR2 peptide, sequence PDVDLGDISGINAS.

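The parent was found by panning a naive human phage display library on the peptide. Designed CDR sequences, proposed from the first random library and measured here. Group labels follow the data file (Ctrl: baseline library sampled from a position-specific scoring matrix, with some repeated check sequences; GPLM: also part of the Gaussian process libraries; HC: hill climbing; a sequence that several methods proposed may carry one label only). The scFvs were displayed on barcoded MATa yeast, the peptide on MATalpha yeast. Pairs that bind mate more often; barcode pairs of the diploids are counted by sequencing. Each replicate has its own calibration line, from reference interactions of the BCL2 family. Each pool was mated in six replicate cultures.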

Ab-14 is the parent antibody, in scFv form: VH, then the linker GGGGSGGGGSGGGGS, then VL. The light chain is unchanged in all variants.
VH: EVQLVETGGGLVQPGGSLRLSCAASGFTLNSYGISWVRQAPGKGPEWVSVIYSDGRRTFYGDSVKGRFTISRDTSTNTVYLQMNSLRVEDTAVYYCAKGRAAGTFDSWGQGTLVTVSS
VL: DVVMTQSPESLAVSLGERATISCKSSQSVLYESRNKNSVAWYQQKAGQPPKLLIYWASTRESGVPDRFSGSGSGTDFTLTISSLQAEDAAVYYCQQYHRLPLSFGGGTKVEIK

Variants are written as CDR1, CDR2 and CDR3 of the heavy chain (limits as in the source). Parent: GFTLNSYGIS, VIYSDGRRTFYGDSVK, GRAAGTFDS. The read-out is the apparent dissociation constant on a log10 scale (nM): the lower, the stronger. The mean shown is taken over the replicates in which the pair was detected. An entry "ND" has no value in the source: the pair was not observed among the diploids in that replicate. This suggests poor binding but is not conclusive. The range of this assay differs from that of the first round, and the authors advise against merging the two. The authors averaged sequences with at least three values out of six and counted those with two or fewer as poor binders. A sequence that the file lists under several names has all its replicates listed entry by entry, parted by semicolons. As a blank, each scFv also met three strains without target: over all heavy chain designs, 1% of these pairings were detected, typically at 2.08 and seldom below 0.84. For each scFv, signals with the empty controls are counted beside the result, with their mean in brackets. The parent sequence was in this pool as ten entries: three were never detected, three once, and four in most replicates, with averages from 0.34 to 2.37.

CDR-H1 | CDR-H2 | CDR-H3 | group | log10 Kd (nM) by replicate | log10 Kd (nM), mean | empty controls
GETPDEYGIS | VIYSDGRRTFYGDSVK | GRAAGTFDS | Ctrl | ND ND ND ND ND ND | ND | 0/18
LFSLNSYGIS | VIYSDGRRTFYIDSVR | IRAAVTWDS | Ctrl | ND ND ND ND ND ND | ND | 0/18
GFTLNSYGIS | VIYSDGRKTMYSDFVK | GRAAGTFDL | Ctrl | ND ND ND ND ND ND | ND | 1/18 (2.70)
GNTLNSYGIS | VIYSDGRRTFYGDDVK | GERYGTFDS | Ctrl | ND ND ND ND ND ND | ND | 0/18
GFTLNDYGIS | VIYSDGRRTFYGDSVR | GRAAGTFDS | Ctrl | 1.17 0.19 0.69 0.22 0.62 0.77 | 0.61 | 2/18 (2.43)
GFTLNEYGIS | VIYSDGRRTMYGDSVK | GRAAGTFDS | Ctrl+GPLM_HC | 0.34 0.26 0.17 0.07 0.45 0.54; 1.08 1.55 1.66 0.19 0.16 0.51 | 0.58 | 1/36 (1.15)
GFTLNSYGIS | VIYSDGRRTFYGDNVK | GRGAGTFIS | Ctrl | ND ND ND ND ND ND | ND | 0/18
TFTLNSYGIS | VIYADGRRTFYGDSVK | GRAAGTFHS | Ctrl | ND 2.10 ND 2.99 2.18 1.53 | 2.20 | 0/18
GFTLDLYGIS | VIYSDGRRTFYGDSVK | GRAAGTFDM | Ctrl | 1.38 2.81 1.82 2.18 2.88 2.79 | 2.31 | 0/18
GFTLNSYGIS | VIYSDGRRTFYGDSTK | GRAAGTFKS | Ctrl | ND ND ND ND ND ND | ND | 0/18
GFTLNSYGIS | VIYSDGRRTFYTDSVK | TRAAGTFDS | Ctrl | ND ND ND ND ND ND | ND | 0/18
GFTLNSYGIS | VIYSDGRRTFYGDSVK | GRAAGTPDS | Ctrl | ND ND ND ND ND ND | ND | 0/18
GFTLNSYGIS | VIYSDGRRTFYGDAVK | GRSSGTFDS | Ctrl | ND ND ND ND ND ND | ND | 0/18
GFTLNSYGIS | VIYSDGRRTFYGDSVK | GVAAGTFPS | Ctrl | 1.05 0.66 ND ND ND 2.74 | 1.48 | 0/18
GFNLNSYGIS | VIYSDGQRTFYSDSVK | GRAAGTFSS | Ctrl | 1.39 2.19 1.28 1.46 4.00 1.94 | 2.04 | 0/18
GFALDDYGIA | VIYSDGRRTFYGDSVK | GRAAGTFRS | Ctrl | ND ND ND ND ND ND | ND | 0/18
GFTLNSYGIS | VIYSDGRRTFYGHSVK | GRAAGTFDS | Ctrl | ND ND ND ND ND ND | ND | 0/18
GFQLNSYGIS | VIYSDGRRTFYGDSVR | GRAAGTFDS | Ctrl | ND 1.83 ND ND 2.05 2.70 | 2.19 | 1/18 (2.80)
GFTLNSYGIS | VIYSDGRRTFYGDSTK | GRRAGTFRS | Ctrl | ND ND ND ND ND ND | ND | 0/18
GDTLNMYGIS | VIYSDGRRTFYGDSVK | GREAGTFDS | Ctrl | 1.13 0.79 0.45 0.69 0.76 0.73 | 0.76 | 0/18
GFTLNDYGIS | VIYSDGRRTFYGDSVK | GGAAGTFDS | Ctrl | 0.98 1.07 0.99 0.98 1.18 1.53 | 1.12 | 1/18 (1.77)
GFTLNSYGIS | VIYSDGRRTFYIDSVR | GRAAGEFNS | Ctrl | ND ND ND ND ND ND | ND | 0/18
GFTLNSYGIS | VIYSDGRRTFYGDSVK | GRAAGFFES | Ctrl | 0.34 1.26 1.62 0.01 0.15 1.42 | 0.80 | 0/18
GFTLNSYGIS | VIYSDGKRVFYGDSVK | GRGAGTFDS | Ctrl | ND ND ND ND 0.01 ND | 0.01 | 0/18
GFTLNSYGIS | VIYSDGRRTFYGDSVK | GRAASTFDV | Ctrl | ND ND ND ND ND ND | ND | 0/18
GFTNNSYGIS | VIYSDGRRTFYLDSVK | GRFAGTFDS | Ctrl | ND ND ND ND ND ND | ND | 0/18
GFTLNDYGIS | VIYSDGFRTFIGDSVK | GRAAGTFDS | Ctrl | ND ND ND ND ND 1.31 | 1.31 | 1/18 (1.21)
GFNLNSYGIS | VIYSDGRRTFYGDSVK | GYAAGTFDS | Ctrl | 1.64 1.07 1.97 0.54 1.58 1.31 | 1.35 | 1/18 (2.39)
GFTLNTYGIS | VIYSDGHRTFYKDSVK | RHAAGTFDS | Ctrl | ND ND ND ND ND ND | ND | 0/18
GFTLNSYGIS | VIYSDGRRTFYGDAVK | GRACGTFFS | Ctrl | ND ND ND ND ND ND | ND | 0/18
GFTLNSYGIS | VIYSDGRRTFYGDSVK | GRSAGTFLL | Ctrl | 0.82 1.42 0.79 1.18 0.15 1.92 | 1.04 | 1/18 (1.38)
GFTLNSYGIS | VIYSDGRRGAYGDSVK | GYAAGTFDT | Ctrl | ND ND ND ND ND ND | ND | 0/18
RFTLNSYGIS | VIYSDGRRTFYNDSVK | GRAAGTFDS | Ctrl | ND ND ND ND ND ND | ND | 0/18
GFWLNMYGIS | VIYSDGRRTFYGDSVK | GRAAGTFDS | Ctrl | ND ND ND 2.67 2.15 ND | 2.41 | 0/18
GFALNLYGIS | VIYSDGRRCFYKDSVK | GRAAGTFDS | Ctrl | ND 2.35 ND ND ND ND | 2.35 | 0/18
GFTLNLYGIS | VIYSDGRRTFYGDSVK | GRAAGTFDY | Ctrl | ND ND ND ND ND ND | ND | 1/18 (0.78)
GFTLRSYGIS | VIYSDGRRTFYGDSVK | GRQASTIDS | Ctrl | ND ND ND ND ND ND | ND | 0/18
GFTLNSYGIS | VIYSDGRRTFYGDSVK | ERAAATFDS | Ctrl | ND ND ND ND ND ND | ND | 0/18
GNTLNSYGIS | VIYSDGRRTFYGDKVK | TRAAGTFDS | Ctrl | ND ND ND ND ND ND | ND | 0/18
GFTLNSYGIS | VIYSDGRRTQYSDSVK | GRAAHTFDS | Ctrl | ND 1.19 ND ND ND ND | 1.19 | 0/18
DFTLNSYGIS | VIYADGRRTFYGDSVV | GRKAGTFDS | Ctrl | ND ND ND ND ND ND | ND | 0/18
GFTLNSYGIS | VIYSDGVRTFYGDSVK | GRLAGTFDS | Ctrl | 1.13 0.61 0.87 0.50 0.35 0.93 | 0.73 | 0/18
GFTLNSYGIS | VIYSDGRRTFYGDQVK | GRAAGTPDS | Ctrl | ND ND ND ND ND ND | ND | 0/18
GFTLNSYDIS | VIYSDGRRTFYSDSVK | GRAAGTGDL | Ctrl | ND ND ND ND ND ND | ND | 0/18
GFTLNSYGIS | VIYSDGRRTFYADSVK | IREACTFDS | Ctrl | ND ND ND ND ND ND | ND | 2/18 (2.08)
GFTLNSYGIS | VIYSDGRRTFYGDSVK | GRVKGTFRS | Ctrl | ND ND ND ND ND ND | ND | 0/18
GFTLTEYGIQ | VIYSDGQRTFYDNSVK | GKAAGTFDS | Ctrl | ND ND ND ND ND ND | ND | 0/18
GFTLNMYGIS | VIYSDGRRTFYGDSVK | GRAAGTDDV | Ctrl | ND ND ND ND ND ND | ND | 0/18

The first 8 variants above that were never detected:

CDR-H1,CDR-H2,CDR-H3,group,log10 Kd (nM) by replicate,"log10 Kd (nM), mean",empty controls
GETPDEYGIS,VIYSDGRRTFYGDSVK,GRAAGTFDS,Ctrl,ND ND ND ND ND ND,ND,0/18
LFSLNSYGIS,VIYSDGRRTFYIDSVR,IRAAVTWDS,Ctrl,ND ND ND ND ND ND,ND,0/18
GFTLNSYGIS,VIYSDGRKTMYSDFVK,GRAAGTFDL,Ctrl,ND ND ND ND ND ND,ND,1/18 (2.70)
GNTLNSYGIS,VIYSDGRRTFYGDDVK,GERYGTFDS,Ctrl,ND ND ND ND ND ND,ND,0/18
GFTLNSYGIS,VIYSDGRRTFYGDNVK,GRGAGTFIS,Ctrl,ND ND ND ND ND ND,ND,0/18
GFTLNSYGIS,VIYSDGRRTFYGDSTK,GRAAGTFKS,Ctrl,ND ND ND ND ND ND,ND,0/18
GFTLNSYGIS,VIYSDGRRTFYTDSVK,TRAAGTFDS,Ctrl,ND ND ND ND ND ND,ND,0/18
GFTLNSYGIS,VIYSDGRRTFYGDSVK,GRAAGTPDS,Ctrl,ND ND ND ND ND ND,ND,0/18